## AlphaSeq binding of Ab-14 light chain variants to a spike HR2 peptide

Target: peptide PDVDLGDISGINAS, taken from heptad repeat 2 (HR2) of SARS-CoV-2 spike.

Parent scFv Ab-14: VH joined to VL by the linker GGGGSGGGGSGGGGS. Changes lie in the light chain CDRs alone.
VH: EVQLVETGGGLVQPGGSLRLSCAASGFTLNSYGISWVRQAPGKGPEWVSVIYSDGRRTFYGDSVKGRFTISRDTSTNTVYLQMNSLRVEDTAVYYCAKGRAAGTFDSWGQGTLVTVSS
VL: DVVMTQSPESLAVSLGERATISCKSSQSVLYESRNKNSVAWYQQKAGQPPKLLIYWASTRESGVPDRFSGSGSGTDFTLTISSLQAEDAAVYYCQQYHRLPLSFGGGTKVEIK

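The parent was found by panning a naive human phage display library on the peptide. These sequences belong to a second round, designed from the earlier measurements on random variants of the parent. Their group label is 14L_Ctrl (Ctrl: baseline library sampled from a position-specific scoring matrix, with some repeated check sequences). AlphaSeq pools MATa yeast showing the antibodies with MATalpha yeast showing the peptide. The frequency of each diploid, read from paired DNA barcodes, reflects how well the two displayed proteins bind. Each replicate has its own calibration line, from reference interactions of the BCL2 family. The assay was run in six technical replicates.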

Variants are written as CDR1, CDR2 and CDR3 of the light chain (limits as in the source). Parent: KSSQSVLYESRNKNSVA, WASTRES, QQYHRLPLS. Affinities are written as log10 Kd with Kd in nM; a lower number is a better binder. A pair that was not seen in that replicate is written "n.d."; this usually means weak binding, but a binder can also be missed. Values of this round are not directly comparable with the first-round values of the same sequences. Background: pairings of all light chain designs with three empty control strains gave a value in 4% of cases (median 2.64, 5th percentile 1.59). Values in that range, when seen in few replicates, are hard to tell from nonspecific mating. Also given: how often the same scFv was detected with the empty control strains, with their mean in brackets. The parent sequence was in this pool as ten entries: three were never detected, three once, and four in most replicates, with averages from 0.34 to 2.37. The authors' rule: three or more of the six replicates give a measured affinity, fewer mean a poor binder.

{"CDR-L1": "MSSQSVLYEGRNKNSIA", "CDR-L2": "WASQRES", "CDR-L3": "QQYERLPIS", "replicates, log10 nM": "n.d. / n.d. / n.d. / n.d. / n.d. / n.d.", "empty controls": "0/18"}
{"CDR-L1": "KLSVSVLYESRNKNSVA", "CDR-L2": "YASTRES", "CDR-L3": "QQYHRLPLS", "replicates, log10 nM": "0.46 / 0.22 / 0.37 / 0.53 / 0.97 / 0.59", "empty controls": "2/18 (2.71)"}
{"CDR-L1": "KISQSVMYESRNKNSVA", "CDR-L2": "AASTRES", "CDR-L3": "QQYHRLPLS", "replicates, log10 nM": "0.40 / 0.46 / 0.63 / 0.41 / 0.89 / 1.12", "empty controls": "1/18 (1.79)"}
{"CDR-L1": "KFSGSVLYESRNFNGVA", "CDR-L2": "NASTRES", "CDR-L3": "QQYWRLPLS", "replicates, log10 nM": "0.59 / 0.22 / 0.21 / -0.14 / -0.06 / 0.16", "empty controls": "0/18"}
{"CDR-L1": "KSKQSVLYESRNKNSVA", "CDR-L2": "WASTRES", "CDR-L3": "QQYHRLPLS", "replicates, log10 nM": "n.d. / n.d. / n.d. / n.d. / n.d. / n.d.", "empty controls": "0/18"}
{"CDR-L1": "KSSQSVLDESRNKNSVA", "CDR-L2": "WASTRES", "CDR-L3": "QQYHRLPLI", "replicates, log10 nM": "1.11 / 0.99 / 0.85 / 1.73 / 0.90 / 0.94", "empty controls": "3/18 (2.59)"}
{"CDR-L1": "KFSQSVLGESRNKNSVA", "CDR-L2": "WASTRES", "CDR-L3": "QQYHRLPLS", "replicates, log10 nM": "0.92 / 0.45 / 0.73 / 0.33 / 0.54 / 0.79", "empty controls": "1/18 (3.51)"}
{"CDR-L1": "KMSQPLLYESRNCNSVA", "CDR-L2": "AASTRES", "CDR-L3": "QQYHRLPLS", "replicates, log10 nM": "3.70 / 1.58 / 1.71 / 1.26 / 1.83 / 1.27", "empty controls": "0/18"}
{"CDR-L1": "KISQSKLMESRNLNSVA", "CDR-L2": "WASTRSS", "CDR-L3": "QQYHRLPLS", "replicates, log10 nM": "2.23 / 1.88 / 3.45 / 2.29 / 1.13 / 2.25", "empty controls": "0/18"}
{"CDR-L1": "KSSQSVLYESRNKNSVA", "CDR-L2": "MASTRES", "CDR-L3": "QTYHRLPLS", "replicates, log10 nM": "n.d. / n.d. / n.d. / n.d. / n.d. / n.d.", "empty controls": "0/18"}
{"CDR-L1": "KSSQSVLYESMNKNSVA", "CDR-L2": "WASTRES", "CDR-L3": "QQYSRLPLS", "replicates, log10 nM": "1.66 / 0.79 / 0.65 / 1.58 / 1.11 / 0.92", "empty controls": "0/18"}
{"CDR-L1": "KSVQSELYESRNKNSVA", "CDR-L2": "HASTAES", "CDR-L3": "QQYHRLPLS", "replicates, log10 nM": "0.76 / 0.67 / 0.76 / 0.50 / 1.01 / 0.80", "empty controls": "0/18"}
{"CDR-L1": "KSSQSVLYESSNKNSVA", "CDR-L2": "YASTRES", "CDR-L3": "QQYARWPLS", "replicates, log10 nM": "n.d. / n.d. / n.d. / n.d. / n.d. / n.d.", "empty controls": "0/18"}
{"CDR-L1": "KSSQSVLYEDRNKNSVA", "CDR-L2": "GASTRES", "CDR-L3": "QQYHRLPLS", "replicates, log10 nM": "0.26 / 0.44 / 0.04 / 0.06 / -0.11 / 0.10", "empty controls": "1/18 (2.93)"}
{"CDR-L1": "KSSQSVLYESRNKNSVA", "CDR-L2": "DANTRTS", "CDR-L3": "QQYHRLPLS", "replicates, log10 nM": "0.63 / 0.09 / -0.24 / 0.36 / 0.32 / 0.47", "empty controls": "0/18"}
{"CDR-L1": "KSSQSVLYESTCKNSVA", "CDR-L2": "NASTRES", "CDR-L3": "QQYHELPLS", "replicates, log10 nM": "1.85 / 1.44 / 1.31 / 2.51 / 0.75 / 1.19", "empty controls": "0/18"}
{"CDR-L1": "KISQSVLYESRNKNSVA", "CDR-L2": "WGSTRES", "CDR-L3": "QQYHRLPLS", "replicates, log10 nM": "0.26 / 0.10 / -0.10 / 0.08 / 0.17 / 0.17", "empty controls": "0/18"}
{"CDR-L1": "KESLSVTYESRNKNSVA", "CDR-L2": "WASTRES", "CDR-L3": "QQYHRLPLS", "replicates, log10 nM": "n.d. / 2.31 / 2.00 / 2.50 / 1.81 / 2.41", "empty controls": "1/18 (4.29)"}
{"CDR-L1": "KSSQSVLYNSSNKNNVA", "CDR-L2": "WASTRES", "CDR-L3": "QQYHRLPLS", "replicates, log10 nM": "1.19 / 1.12 / 1.56 / 1.09 / 1.14 / 1.36", "empty controls": "1/18 (3.17)"}
{"CDR-L1": "KSSQSVLYESDNKNSVA", "CDR-L2": "HASTRES", "CDR-L3": "QQQHRLPNS", "replicates, log10 nM": "n.d. / n.d. / n.d. / n.d. / n.d. / 1.85", "empty controls": "0/18"}

The opening 3 entries, copied out:

| CDR-L1 | CDR-L2 | CDR-L3 | replicates, log10 nM | empty controls |
|---|---|---|---|---|
| MSSQSVLYEGRNKNSIA | WASQRES | QQYERLPIS | n.d. / n.d. / n.d. / n.d. / n.d. / n.d. | 0/18 |
| KLSVSVLYESRNKNSVA | YASTRES | QQYHRLPLS | 0.46 / 0.22 / 0.37 / 0.53 / 0.97 / 0.59 | 2/18 (2.71) |
| KISQSVMYESRNKNSVA | AASTRES | QQYHRLPLS | 0.40 / 0.46 / 0.63 / 0.41 / 0.89 / 1.12 | 1/18 (1.79) |

Reference: Li et al. 2023, doi:10.1038/s41467-023-39022-2. File: FLAb, binding data.